Data as given in patent EP1077967B1, “BIPHENYL OXO-ACETIC ACIDS USEFUL IN THE TREATMENT OF INSULIN RESISTANCE AND HYPERGLYCEMIA” (Wyeth, priority 1998, dated 1999).

Target: T1, Human recombinant PTP1B (Homo sapiens, UniProt P18031)
T1 construct: made in house
T1 sequence (P18031 1-435): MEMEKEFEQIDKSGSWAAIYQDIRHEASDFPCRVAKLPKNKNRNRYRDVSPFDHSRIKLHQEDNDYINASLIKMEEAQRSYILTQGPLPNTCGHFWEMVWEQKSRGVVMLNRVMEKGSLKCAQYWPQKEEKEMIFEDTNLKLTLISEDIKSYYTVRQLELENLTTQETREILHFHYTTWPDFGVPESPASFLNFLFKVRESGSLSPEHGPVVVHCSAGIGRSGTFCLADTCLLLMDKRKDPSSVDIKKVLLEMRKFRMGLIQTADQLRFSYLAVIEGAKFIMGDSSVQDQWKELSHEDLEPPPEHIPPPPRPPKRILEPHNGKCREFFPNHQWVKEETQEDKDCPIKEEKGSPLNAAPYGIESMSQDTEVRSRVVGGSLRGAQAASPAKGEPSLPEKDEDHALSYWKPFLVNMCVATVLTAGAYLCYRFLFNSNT
Test: Inhibition of tri-phosphorylated insulin receptor dodecaphosphopeptide dephosphorylation by hPTP1B (malachite green)
Assay type: biochemical
Settings: dodecaphosphopeptide substrate

| Structure (SMILES) | IC50 [nM] |
| --- | --- |
| COc1ccc(Cc2sc3ccccc3c2-c2ccc(-c3ccc(O[C@H](Cc4ccccc4)C(=O)O)cc3)cc2)cc1 [Example 20] | 77 |
| O=C(c1ccccc1)c1oc2ccccc2c1-c1ccc(-c2ccc(OC(Cc3ccccc3)C(=O)O)cc2)cc1 (stereo not drawn) [Example 14] | 680 |
| O=C(O)C(Cc1ccccc1)Oc1ccc(-c2ccc(-c3c(Cc4ccccc4)sc4ccccc34)cc2)cc1 (stereo not drawn) [Example 13, 2-[4'-(2-Benzyl-benzo[b]thiophen-3-yl)-biphenyl-4-yloxy]-3-phenyl-propionic acid] | 95 |
